Tested on: IBDV, APHIS strain

**Q.** For `N=C(N)c1ccc2oc3ccc(C(=N)N)cc3c2c1` [SW066], which “surviving chicks: organ weights, histopathology, and flow cytometry” value (in vivo) is on record?
**A.** appeared normal

**Q.** And the “delay of embryo death” value (ten day old chick embryos)?
**A.** approximately 24 hours

**Q.** And the “effect on EID50” value (ten day old chick embryos, chorio-allantoic membrane route)?
**A.** did not alter the EID50

Source: patent US6774144B1, “Methods and formulations for the treatment of infectious bursal disease in avian subjects” (The University of North Carolina at Chapel Hill, priority 1999, dated 2004)
